From patent publication US20110046170A1, “NOVEL PYRIMIDINE-PYRIDINE DERIVATIVES” (priority 2008, published 2011)

Protein sequences, listed by entry. Tags and fused reporters are not part of them.
UniProt P21453, whole entry: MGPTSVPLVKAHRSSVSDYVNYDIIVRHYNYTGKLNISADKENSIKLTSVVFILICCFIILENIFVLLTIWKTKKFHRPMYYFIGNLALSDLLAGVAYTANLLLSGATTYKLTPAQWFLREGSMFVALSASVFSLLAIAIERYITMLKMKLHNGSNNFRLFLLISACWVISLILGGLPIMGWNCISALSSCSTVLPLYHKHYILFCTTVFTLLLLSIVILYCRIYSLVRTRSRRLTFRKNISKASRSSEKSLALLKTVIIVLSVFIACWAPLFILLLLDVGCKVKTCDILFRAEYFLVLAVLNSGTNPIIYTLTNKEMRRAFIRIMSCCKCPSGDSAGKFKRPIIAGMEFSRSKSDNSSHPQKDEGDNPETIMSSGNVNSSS

Experiments:
human S1P1 receptor = human S1P1 receptor (Homo sapiens, UniProt P21453); assay: GTPγS assay to determine EC50 values; details: 35S-GTPγS binding, membrane preparations of CHO cells expressing recombinant human S1P1 receptor; agonistic activity
Method: GTPγS Assay to Determine EC50 Values
GTPγS binding assays are performed in 96 well microtiter plates (Nunc, 442587) in a final volume of 200 μl, using membrane preparations of CHO cells expressing recombinant human S1P1 receptor. Assay conditions are 20 mM Hepes (Fluka, 54461), 100 mM NaCl (Fluka, 71378), 5 mM MgCl2 (Fluka, 63064), 0.1% BSA (Calbiochem, 126609), 1 μM GDP (Sigma, G-7127), 2.5% DMSO (Fluka, 41644), 50 pM ^35S-GTPγS (Amersham Biosciences, SJ1320). The pH is 7.4. Test compounds are dissolved and diluted in 100% DMSO and pre-incubated at rt for 30 min in 150 μl of the above assay buffer, in the absence of ^35S-GTPγS. After addition of 50 μl of ^35S-GTPγS, the assay is incubated for 1 h at rt. The assay is terminated by transfer of the reaction mixture to a Multiscreen plate (Millipore, MAHFC1H60) using a cell harvester from Packard Biosciences, and the plates are washed with ice-cold 10 mM Na2HPO4/NaH2PO4 (70%/30%), dried, sealed at the bottom and, after addition of 25 μl MicroScint20 (Packard Biosciences, order# 6013621), sealed on the top. Membrane-bound ^35S-GTPγS is measured with a TopCount from Packard Biosciences.
EC50 is the concentration of agonist inducing 50% of the maximal specific ^35S-GTPγS binding. Specific binding is determined by subtracting non-specific binding from maximal binding. Maximal binding is the amount of cpm bound to the Multiscreen plate in the presence of 10 μM of S1P. Non-specific binding is the amount of binding in the absence of an agonist in the assay.

circulating lymphocytes = assay: Assessment of in vivo efficacy: circulating lymphocytes after oral administration; details: 6 h after oral administration of 10 mg/kg to normotensive male Wistar rats, compared to vehicle-treated group; mean ± SEM
Method: Assessment of In Vivo Efficacy
The efficacy of the compounds of formula (I) is assessed by measuring the circulating lymphocytes after oral administration of 3 to 30 mg/kg of a compound of formula (I) to normotensive male Wistar rats. The animals are housed in climate-controlled conditions with a 12 h-light/dark cycle, and have free access to normal rat chow and drinking water. Blood is collected before and 3, 6 and 24 h after drug administration. Full blood is subjected to hematology using Advia Hematology system (Bayer Diagnostics, Zurich, Switzerland).
All data are presented as mean±SEM. Statistical analyses are performed by analysis of variance (ANOVA) using Statistica (StatSoft) and the Student-Newman-Keuls procedure for multiple comparisons. The null hypothesis is rejected when p<0.05.

Row | EC50 (human S1P1 receptor) | SMILES | Lymphocyte counts (circulating lymphocytes)
1 | 9.8 nM | CCCc1cc(-c2nc(-c3cc(C)nc(C)c3)no2)nc(NC)n1 | 
2 | 7.8 nM | Cc1cc(-c2noc(-c3cc(C)nc(N(C)CC(C)C)n3)n2)cc(C)n1 | −67 ± 3%
3 | 38 nM | CCNc1nc(C)cc(-c2noc(-c3cc(C)nc(C)c3)n2)n1 | 
4 | 5890 nM | Cc1cc(-c2nc(-c3cc(C)nc(NCC(C)C)n3)no2)ccn1 | 
